In US12404250B2, “PARP inhibitors for treating cancer and asthma” (Oregon Health & Science University, priority 2018, dated 2025):

What was measured:
PARP12 = target: T1, PARP12 (Homo sapiens, UniProt Q9H0J9); test: In vitro IC50, immunoprecipitated GFP-PARP12 auto-MARylation; type: biochemical
T1 construct: expressed in transfected cells; host or cells: HEK 293T
T1 sequence (Q9H0J9 1-701): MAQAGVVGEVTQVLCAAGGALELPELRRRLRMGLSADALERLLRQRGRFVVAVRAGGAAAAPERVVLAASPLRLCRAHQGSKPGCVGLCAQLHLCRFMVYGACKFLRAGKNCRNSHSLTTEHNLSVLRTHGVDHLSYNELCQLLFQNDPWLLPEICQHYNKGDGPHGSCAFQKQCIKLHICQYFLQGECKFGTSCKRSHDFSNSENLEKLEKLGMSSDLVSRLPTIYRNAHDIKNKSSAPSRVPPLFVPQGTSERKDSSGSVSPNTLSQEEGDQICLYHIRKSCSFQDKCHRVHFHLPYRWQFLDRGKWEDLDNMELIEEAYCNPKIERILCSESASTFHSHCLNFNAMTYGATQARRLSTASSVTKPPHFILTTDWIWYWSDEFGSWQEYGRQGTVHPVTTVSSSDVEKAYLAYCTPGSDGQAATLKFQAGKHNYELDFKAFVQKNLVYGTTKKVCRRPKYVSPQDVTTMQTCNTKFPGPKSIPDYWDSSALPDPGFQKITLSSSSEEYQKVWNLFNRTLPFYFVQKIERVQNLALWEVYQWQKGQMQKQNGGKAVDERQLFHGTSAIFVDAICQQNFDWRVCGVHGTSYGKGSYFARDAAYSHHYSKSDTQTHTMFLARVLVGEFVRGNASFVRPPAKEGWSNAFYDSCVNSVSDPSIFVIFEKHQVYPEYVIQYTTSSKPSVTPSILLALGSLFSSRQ

PARP15 cat = target: T2, PARP15 cat (Homo sapiens, UniProt Q460N3); test: In vitro IC50, PARP15 cat; type: biochemical; conditions: SEM from a minimum of three dose-response experiments
T2 construct: cat-wwe; cat
T2 sequence (Q460N3 482-678 limits assumed): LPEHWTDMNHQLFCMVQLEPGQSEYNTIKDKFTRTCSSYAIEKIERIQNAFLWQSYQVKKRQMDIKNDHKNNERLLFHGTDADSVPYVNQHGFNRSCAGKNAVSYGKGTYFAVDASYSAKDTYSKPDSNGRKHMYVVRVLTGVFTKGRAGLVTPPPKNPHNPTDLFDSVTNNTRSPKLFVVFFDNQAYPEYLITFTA

Compound: CNCc1ccc(-c2[nH]c3cc(F)cc4c3c2CCNC4=O)cc1 [Rucaparib, reference compound]
- IC50 (PARP12): ~7 µM
- IC50 (PARP15 cat): > 10 µM
